Data reported in patent US20190351069A1, “Coating of Nanoparticle Surfaces with Cyclopeptides for Improving Delivery of Agents Via the Oral Route” (Ruprecht-Karls-Universität Heidelberg, priority 2016, published 2019).

Test: in vitro
Settings: simulated intestinal fluid

- remaining at 0.25 h, 0.5 mg/mL: 5.79%
SMILES: CC[C@H](C)[C@H](NC(=O)[C@H](CCCCN)NC(=O)[C@@H](NC(=O)[C@H](CCC(N)=O)NC(=O)[C@@H](N)CCCNC(=N)N)[C@@H](C)CC)C(=O)N[C@@H](Cc1c[nH]c2ccccc12)C(=O)N[C@@H](Cc1ccccc1)C(=O)N[C@@H](CCC(N)=O)C(=O)N[C@@H](CC(N)=O)C(=O)N[C@@H](CCCNC(=N)N)C(=O)N[C@@H](CCCNC(=N)N)C(=O)N[C@@H](CCSC)C(=O)N[C@@H](CCCCN)C(=O)N[C@@H](Cc1c[nH]c2ccccc12)C(=O)N[C@@H](CCCCN)C(=O)N[C@@H](CCCCN)C(=O)N[C@@H](CS)C(=O)O [linear CPP]
